This passage reports logD and pKa results from ChEMBL document CHEMBL1123431, “Nonquaternary cholinesterase reactivators. 4. Dialkylaminoalkyl thioesters of alpha-keto thiohydroximic acids as reactivators of ethyl methylphosphonyl- and 1,2,2-trimethylpropyl methylphosphonyl-acetylcholinesterase in vitro” (1986).

SMILES strings stand for the structures.

Data set [1] is described as follows: Partition coefficient (logD7.6). Particulars: octanol/water, pH 7.6.
A short description of data set [2]: Dissociation constant (pKa) (for oxime acid).

One may read the logD as the decadic logarithm of the distribution of all forms, ionised or not, between an organic phase and buffer at a given pH. Read a high logD as a more lipophilic compound. In general, pKa refers to the pH at which an ionisable group is half protonated.

Compound `CN(C)CCS/C(=N\O)C(=O)c1ccc(Cl)cc1.Cl` returned a logD in data set [1] of 1.74. Moreover, the pKa in data set [2] was found to be 7.57.
The like results for `CN(C)CCS/C(=N\O)C(=O)c1ccc(F)cc1` were, in that order, 1.15 and 7.54.
Consider `C[N+](C)(C)CCS/C(=N\O)C(=O)c1ccc(F)cc1.[Cl-]`, for which the logD in data set [1] is -1.55. Besides, the pKa in data set [2] is 7.36.
In the same order, the values of `COc1ccc(C(=O)/C(=N/O)SCCN(C)C)cc1` are 1.07 and 7.88.
As for `CC[N+](C)(CC)CCS/C(=N\O)C(=O)c1ccc(C#N)cc1.[Cl-]`, in data set [2], the pKa came to 6.72.
In turn, `CC(C)N(CCS/C(=N\O)C(=O)c1ccc(Cl)cc1)C(C)C.Cl` showed a pKa in data set [2] of 7.2.
In turn, `Cc1ccc(C(=O)/C(=N/O)SCCN(C)C)cc1.Cl` showed a logD in data set [1] of 1.52. The same compound gave a pKa in data set [2] of 7.76.
Consider `CN(C)CCS/C(=N\O)C(=O)c1ccc(Br)cc1.Cl`, for which the logD in data set [1] was determined as 1.7. Also, in data set [2], the pKa came out at 7.36.
As for `COc1ccc(C(=O)/C(=N/O)SCCCN(C)C)cc1.O=C(O)C(=O)O`, in data set [1], the log distribution coefficient (logD) was 0.49.
Compound `CCN(CC)CCS/C(=N\O)C(=O)c1ccc(C#N)cc1.Cl` gave a pKa in data set [2] of 7.02.
As to `CCN(CC)CCS/C(=N\O)C(=O)c1ccc(OC)cc1`, the logD in data set [1] was 1.43. In addition, the pKa in data set [2] worked out at 7.65.
For the compound `CCN(CC)CCS/C(=N\O)C(=O)c1ccc(Cl)cc1.Cl`, the logD in data set [1] is 1.97. The compound also had a pKa in data set [2] of 7.42.
As to `CN(C)CCCS/C(=N\O)C(=O)c1ccc(Br)cc1.O=C(O)C(=O)O`, the pKa in data set [2] was 7.41.
For the compound `CN(C)CCS/C(=N\O)C(=O)c1cccc2ccccc12.Cl`, the logD in data set [1] worked out at 2.32. This compound also came in with a pKa in data set [2] of 7.1.
The like results for `CC[N+](C)(CC)CCS/C(=N\O)C(=O)c1ccc(Cl)cc1.[Cl-]` were, in that order, -0.42 and 7.17.
The like results for `CC[N+](C)(CC)CCS/C(=N\O)C(=O)c1ccc(OC)cc1.[Cl-]` were, in that order, -1.6 and 7.7.
In data set [1], `CCCS/C(=N\O)C(=O)c1ccc(Br)cc1` came in with a logD of 3.38. In addition, the pKa in data set [2] was found to be 8.45.
The like results for `CCN(CC)CCS/C(=N\O)C(=O)c1ccc(Br)cc1.Cl` were, in that order, 2.41 and 7.2.
In the same order, the values of `C[N+](C)(C)CCS/C(=N\O)C(=O)c1ccc(Cl)cc1.[Cl-]` are -0.8 and 7.19.
In the same order, the values of `CC[N+](C)(CC)CCS/C(=N\O)C(=O)c1ccc(F)cc1.[Cl-]` are -1.17 and 7.31.
As for `C[N+](C)(C)CCS/C(=N\O)C(=O)c1ccc(Br)cc1.[I-]`, in data set [1], the logD is -0.55. The pKa in data set [2] came to 7.18.
On to `COc1ccc(C(=O)/C(=N/O)SCC[N+](C)(C)C)cc1.[Cl-]`, for which the logD in data set [1] was -1.96. The same compound came in with a pKa in data set [2] of 7.71.
The like results for `Cc1ccc(C(=O)/C(=N/O)SCC[N+](C)(C)C)cc1.[Cl-]` were, in that order, -1.44 and 7.57.
